One data set concerns the target recombinant human P-gp (Homo sapiens, UniProt P08183).
The conditions of data set [1]: mouse, sc.
For data set [2] the following is noted: rats, cited from earlier work.

By UniProt entry, the sequences of proteins in these tests, tags left out.
UniProt P08183, whole entry: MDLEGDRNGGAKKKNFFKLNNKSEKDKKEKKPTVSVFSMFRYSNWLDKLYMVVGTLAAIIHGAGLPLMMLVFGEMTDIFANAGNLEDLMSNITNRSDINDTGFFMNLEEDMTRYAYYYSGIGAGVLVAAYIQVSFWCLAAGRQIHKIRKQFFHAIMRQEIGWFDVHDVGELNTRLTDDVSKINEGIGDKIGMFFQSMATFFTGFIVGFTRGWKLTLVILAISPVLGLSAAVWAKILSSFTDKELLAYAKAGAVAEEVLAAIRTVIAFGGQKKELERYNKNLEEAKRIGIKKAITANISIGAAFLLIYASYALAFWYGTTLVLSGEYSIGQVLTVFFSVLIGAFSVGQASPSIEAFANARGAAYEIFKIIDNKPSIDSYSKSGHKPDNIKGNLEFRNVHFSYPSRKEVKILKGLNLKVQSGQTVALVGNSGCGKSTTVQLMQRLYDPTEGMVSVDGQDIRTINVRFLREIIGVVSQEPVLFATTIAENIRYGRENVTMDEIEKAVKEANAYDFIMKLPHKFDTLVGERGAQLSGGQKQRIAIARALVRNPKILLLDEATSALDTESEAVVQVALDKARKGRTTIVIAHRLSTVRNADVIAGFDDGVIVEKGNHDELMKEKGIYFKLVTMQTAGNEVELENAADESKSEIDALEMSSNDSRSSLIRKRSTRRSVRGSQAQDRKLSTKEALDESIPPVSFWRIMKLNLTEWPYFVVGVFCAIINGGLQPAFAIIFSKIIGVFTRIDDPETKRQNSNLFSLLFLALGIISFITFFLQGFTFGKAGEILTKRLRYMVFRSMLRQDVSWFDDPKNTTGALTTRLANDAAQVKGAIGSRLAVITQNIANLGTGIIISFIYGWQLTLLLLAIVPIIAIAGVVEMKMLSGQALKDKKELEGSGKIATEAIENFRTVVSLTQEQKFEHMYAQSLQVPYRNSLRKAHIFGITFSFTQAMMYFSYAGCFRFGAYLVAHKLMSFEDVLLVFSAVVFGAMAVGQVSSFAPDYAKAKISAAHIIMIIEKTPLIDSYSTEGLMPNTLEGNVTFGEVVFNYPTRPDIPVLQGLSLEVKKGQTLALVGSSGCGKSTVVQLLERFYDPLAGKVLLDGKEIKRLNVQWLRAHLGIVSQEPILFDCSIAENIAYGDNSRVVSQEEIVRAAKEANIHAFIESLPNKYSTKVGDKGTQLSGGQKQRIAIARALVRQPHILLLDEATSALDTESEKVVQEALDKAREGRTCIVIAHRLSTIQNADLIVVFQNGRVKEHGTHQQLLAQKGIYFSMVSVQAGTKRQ

The text below walks through data of publication PMC3401593 (2009).

Where two headings read alike, the source gives them in different places.

Consider buprenorphine, for which the “Rates of ATP consumption or fold stimulation of basal P-gp ATPase activity versus control” value at recombinant human P-gp is “no statistically significant differences”. In addition, the “Effect of genetic disruption of P-gp on distribution to the brain, liver, or kidney” value in data set [1] is given as “no statistically significant effect”. Besides, the “Enhancement of the apparent brain uptake” value in data set [2] (with cyclosporin A, quinidine, […]) was ~ 1.5 fold; in data set [2] (with vinblastin and vincristine), “no detectable enhancement”.
